Measured values: published antibiotic growth screens (doi:10.1038/s41589-023-01349-8)
Some of the results follow.

These molecules were tested on A. baumannii ATCC 17978 (assay: relative growth (fraction of control); higher = less inhibition). Settings: 50 µM.

SMILES	relative growth
CC(=O)c1c(O)c(C)c(O)c(Cc2c(O)c3c(c(C(=O)/C=C/c4ccccc4)c2O)OC(C)(C)C=C3)c1O	0.992
CCOc1cc(C=O)ccc1O	1.02
Cl.Clc1ccc(C(OCCN2CCCCC2)c2ccccc2)cc1 (stereo not drawn)	0.82
NCC1(c2c(F)cc(F)cc2F)CC1	1
Cl[C@H]1[C@H](Cl)[C@@H](Cl)[C@@H](Cl)[C@H](Cl)[C@H]1Cl	1.04
Oc1ccc(Cl)cc1Cc1cc(Cl)ccc1O	0.153
Cl.NNCc1ccccc1	0.947
CC(O)CN1CCN(CC(=O)[O-])CCN(CC(=O)[O-])CCN(CC(=O)[O-])CC1.[Gd+3] (stereo not drawn)	1.11
C[C@@H]1O[C@@H](O[C@H]2C[C@@H](O)[C@]3(CO)C4C(CC[C@]3(O)C2)[C@@]2(O)CC[C@H](C3=CC(=O)OC3)[C@@]2(C)C[C@H]4O)[C@H](O)[C@H](O)[C@H]1O.O.O.O.O.O.O.O.O (stereo partly drawn)	0.899
COc1ccccc1C1(N)CC1	1.03
CCC(N)C(O)c1ccc(O)c(O)c1.Cl (stereo not drawn)	0.998
CCN(Cc1ccc(Cl)nc1)/C(=C/[N+](=O)[O-])NC	0.966
CCCC(C)(COC(N)=O)COC(=O)NC(C)C (stereo not drawn)	1.05
COC(C)(C)CCC[C@H](C)C/C=C/C(C)=C/C(=O)OC(C)C	1.07
CI.O=C(COc1ccc(Cl)cc1Cl)OC[C@H]1CCCN2CCCC[C@@H]12	0.946
CCC1(C)CC(=O)NC(=O)C1	0.988
C/C=C(\C)C(=O)O[C@H]1C[C@@H](OC(C)=O)[C@@]2(C(=O)OC)CO[C@H]3[C@@H](O)[C@@](C)([C@]45O[C@@]4(C)[C@H]4C[C@@H]5O[C@H]5OC=C[C@@]54O)[C@H]4[C@]1(CO[C@]4(O)C(=O)OC)[C@@H]32	0.996
Nc1nc(Cl)ncc1[N+](=O)[O-]	1.12
N[C@@H](Cc1ccccc1)c1ccc2c(c1)OCCO2	1.04
C#CC(C)(O)CC (stereo not drawn)	0.969
COc1cc2c(cc1O)CC1c3c(cc(O)c(OC)c3-2)CCN1C (stereo not drawn)	0.94
COc1cc(OC)c(OC)cc1C=O	0.881
C[C@]12CCC3C(CC[C@H]4C[C@H](O)CC[C@]34C)C1CCC2=O (stereo partly drawn)	0.911
Clc1ccc(C(c2ccc(Cl)cc2)C(Cl)(Cl)Cl)cc1	1.34
Cc1ccc(C=C2C(=O)NC(=O)NC2=O)cc1	0.982
CC(C)(C)NCC(O)c1ccccc1Cl.Cl (stereo not drawn)	1.06

SMILES	relative growth
C[C@]12CCC(=O)C=C1CCC1C2CC[C@@]2(C)C1CC[C@@H]2O (stereo partly drawn)	1.07
CN1CC[C@@]2(C)c3cc(O)ccc3N(C)[C@@H]12.O=C(O)/C=C/C(=O)O	1.12
Cn1cc(C(=O)Nc2nn[nH]n2)c2ccccc21	0.957
CC(COc1ccc(Oc2ccccc2)cc1)Oc1ccccn1 (stereo not drawn)	1.22
CC1(C)C(=O)C=C[C@@]2(C)C1=C(O)C(=O)[C@]1(C)[C@@H]2CC[C@@]2(C)[C@H](c3ccoc3)C[C@H]3O[C@]321	1.27
CC(=O)O[C@H]1CC[C@@]2(C)C(=CCC3C2CC[C@]2(C)C(=O)CCC32)C1 (stereo partly drawn)	1.11
Cc1nc([N+](=O)[O-])c(N2CCNCC2)[nH]1	1.1
CCOCC(=O)N[C@H]1CCSC1=O	1.02
CCC1(CC)C(=O)NC(=O)NC1=O	0.917
CO[C@H]1[C@@H](O)[C@@H](C)O[C@H](O[C@H]2CCC3(C)C4CCC5(C)[C@@H](C6=CC(=O)OC6)CC[C@]5(O)[C@@H]4CC[C@]3(O)C2)[C@@H]1O (stereo partly drawn)	1.02
C[C@@H]1O[C@@H](O[C@H]2CC[C@]3(C=O)C4CC[C@]5(C)[C@@H](C6=CC(=O)OC6)CC[C@]5(O)C4CC[C@]3(O)C2)[C@H](O)[C@H](O)[C@H]1O (stereo partly drawn)	1.11
CCC(C)C(=O)O[C@@H]1C[C@@]2(C)[C@H](c3ccoc3)OC(=O)CC23OC2(C)O[C@]14[C@]1(C)[C@@H](CC(=O)OC)C5(C)CC1(O)[C@](O)(C5OC(=O)C1(C)OC1C)[C@@H](OC(C)=O)[C@]34O2 (stereo partly drawn)	1.27
O=C1CCO1	1.11
Cl.NCC(=O)c1ccccc1	1.04
CN1CCc2cc3c(cc2C1O)OCO3.Cl (stereo not drawn)	1.07
COCCCNC(=O)[C@@]1(Cc2ccccc2CN=[N+]=[N-])N=C(c2ccc(OCCCO)cc2)O[C@H]1c1ccccc1N=[N+]=[N-]	0.913
CC(CO)NC(=O)C1C=C2c3cccc4[nH]cc(c34)C[C@H]2N(C)C1.O=C(O)/C=C\C(=O)O (stereo partly drawn)	1.04
CN(C)C(=O)Oc1cc(OC(=O)N(C)C)cc(C(O)CNC(C)(C)C)c1.Cl (stereo not drawn)	1.14
Cl.O=C1CC[C@@]2(O)[C@H]3Cc4ccc(O)c5c4C2(CCN3CC2CC2)[C@H]1O5	0.963
N=C(N)N/N=C/c1ccc2c(c1)OCO2	0.97
CC(C)(C)NCC(O)c1cc(Cl)c(N)c(Cl)c1.Cl (stereo not drawn)	1.22
Cc1cc(C(C#N)c2ccc(Cl)cc2)c(Cl)cc1NC(=O)c1cc(I)cc(I)c1O (stereo not drawn)	1.41
COc1ccc2c(c1OC)C(=O)O[C@@H]2[C@H]1c2cc3c(cc2CCN1C)OCO3	1.1
CC(=O)O.Cc1cc2c(C(C)C)c(O)c(O)c(C=O)c2c(O)c1-c1c(C)cc2c(C(C)C)c(O)c(O)c(C=O)c2c1O	0.784
CC1=C(O)C(=O)C=C2C1=CC=C1[C@@]2(C)CC[C@@]2(C)[C@@H]3C[C@](C)(C(=O)O)CC[C@]3(C)CC[C@]12C	0.869
CCC1(C2=NCCN2)Cc2ccccc2O1.Cl (stereo not drawn)	1.11

SMILES	relative growth
CC[N+]1(C)CCCC(OC(=O)C(O)(c2ccccc2)c2ccccc2)C1.[Br-] (stereo not drawn)	0.945
Cc1ncc(CNC(=O)N(CCCl)N=O)c(N)n1.Cl	1
O=C(NC(=O)c1c(F)cccc1F)Nc1ccc(Cl)cc1	1.26
O=C1CCCC2C3CC(CN12)[C@@H]1CCCCN1C3.[O-][Cl+3]([O-])([O-])O (stereo partly drawn)	0.864
COc1cc2c(cc1OC)[C@@H]1C(=O)c3ccc4c(c3O[C@@H]1CO2)CC(C(C)C)O4 (stereo partly drawn)	0.994
COc1ccc(C[C@@H](N)c2ccc(C)cn2)cc1OC	1.11
CCCCOC(=O)c1ccccc1C(=O)OCCCC	1.18
C=CCc1cc(OC)c2c(c1OC)OCO2	1.05
COc1ccc(C(CN(C)C)C2(O)CCCCC2)cc1.Cl (stereo not drawn)	0.917
O=C1NC(=S)NC(=O)C1=Cc1ccccc1	0.887
CC(C)(C#N)O[C@@H]1O[C@H](CO)[C@@H](O)[C@H](O)[C@H]1O	1.1
Nc1ccc2c(c1)CNCC2	0.958
O=C(c1ccccc1)C12CN3CN(CN(C3)C1)C2	0.938
C/C=C1/C[C@@H](C)[C@](O)(CO)C(=O)OCC2=CCN3CC[C@@H](OC1=O)[C@@H]23	0.879
O=c1[nH]oc2c1CCNC2	1.02
CC1(C)C(=O)[C@@H]2O[C@@H]2[C@@]2(C)C1C[C@@H](O)[C@]1(C)C2CC[C@@]2(C)[C@H](c3ccoc3)OC(=O)C3OC321 (stereo partly drawn) [1,2alpha-EPOXYDEACETOXYDIHYDROGEDUNIN]	1.17
CC1(C)CCC(C)(C)c2cc(-c3csc(CC#N)n3)ccc21	1.02
COc1cccc(C=O)c1OC	0.963
OCC(O)[C@H]1O[C@@H]2O[C@H](C(Cl)(Cl)Cl)O[C@@H]2[C@H]1O (stereo partly drawn)	1.07
COC[C@]12CN(C=O)C3[C@@H]4[C@H](OC)C1[C@]3(C1CC3(O)C(OC)C(O)C4(OC(C)=O)C1C3OC(=O)c1ccccc1)[C@@H](OC)C[C@H]2O (stereo partly drawn)	1.09
O=[N+]([O-])O[C@H]1CO[C@H]2[C@@H]1OC[C@H]2O[N+](=O)[O-]	1.09
C=CCc1ccc(OC)cc1	1.06
O=c1cccc2n1C[C@@H]1CNC[C@H]2C1	1.16
COc1cc2ccc(=O)oc2c2ccoc12	1.07
NCC1(CC(=O)O)CCCCC1	0.962
Cc1cc(C)nc(NC2=NCCN2)n1	0.944

SMILES	relative growth
O=C(O)[C@H]1C[C@H]2CCCCN2C1	0.936
COC(=O)[C@]1(Cc2ccccc2N=[N+]=[N-])N=C(c2ccc(OCCCO)cc2)O[C@@H]1c1ccccc1CN=[N+]=[N-]	0.919
NC1C[C@H]1c1ccccc1.O=S(=O)(O)O (stereo partly drawn)	0.968
CC(O)(CS(=O)(=O)c1ccc(F)cc1)C(=O)Nc1ccc(C#N)c(C(F)(F)F)c1 (stereo not drawn)	0.918
C[N+]12CCC(CC1)C(OC(=O)C(O)(c1ccccc1)c1ccccc1)C2.[Br-] (stereo not drawn)	0.956
CN1CCN(Cc2ccc[nH]2)CC1	0.981
C=CCOC(=O)[C@@H]1[C@H](C(=O)OC)N(C)[C@@H](c2ccccc2)[C@]12C(=O)Nc1ccc(I)cc12	1.13
COCCCNC(=O)[C@]1(Cc2ccccc2N=[N+]=[N-])N=C(c2ccc(OCCCO)cc2)O[C@@H]1c1ccccc1N=[N+]=[N-]	1.01
CCOC(=O)c1cncn1[C@H](C)c1ccccc1	1.23
CNC(=O)Oc1cccc2ccccc12	0.949
O=[N+]([O-])c1c(NCCO)ccc2nonc12	0.977
O=C(O)C(Cl)Cl.[NaH]	1.07
CN1CCc2cc3c(cc2[C@@H]1O)OCO3	1.14
COc1cc(C=O)cc(OC)c1OC	0.993
NCCc1cccc2ccccc12	0.988
Cc1[nH]c2ccccc2c1CN(C)C	1.05
COC(=O)[C@@]1(Cc2ccccc2N=[N+]=[N-])N=C(c2ccc(OCCCO)cc2)O[C@H]1c1ccccc1CN=[N+]=[N-]	1.04
NCCc1nnc2n1CCCCC2	0.988
O=C(Cc1ccccc1)c1ccccc1	0.858
CC(C)c1cccc(C(C)C)c1O	1.13
Cc1nccc2c1[nH]c1cc(O)ccc12	0.83
O=C(O)CC[N+](=O)[O-]	0.813
CN1C(=O)[C@@]23C[C@]4([C@@]56C[C@]78SS[C@](CO)(C(=O)N7[C@@H]5Nc5ccccc56)N(C)C8=O)c5ccccc5N[C@H]4N2C(=O)[C@@]1(CO)SS3	0.335
CCNC(=O)[C@H]1O[C@H](n2cnc3c(N)ncnc32)[C@@H](O)[C@@H]1O	0.973
C/C=C/c1ccc2c(c1)OCO2	1.1
